T1: human GIPR (Homo sapiens, UniProt P48546)
T1 construct: expressed in transfected cells
T1 sequence (P48546 22-466): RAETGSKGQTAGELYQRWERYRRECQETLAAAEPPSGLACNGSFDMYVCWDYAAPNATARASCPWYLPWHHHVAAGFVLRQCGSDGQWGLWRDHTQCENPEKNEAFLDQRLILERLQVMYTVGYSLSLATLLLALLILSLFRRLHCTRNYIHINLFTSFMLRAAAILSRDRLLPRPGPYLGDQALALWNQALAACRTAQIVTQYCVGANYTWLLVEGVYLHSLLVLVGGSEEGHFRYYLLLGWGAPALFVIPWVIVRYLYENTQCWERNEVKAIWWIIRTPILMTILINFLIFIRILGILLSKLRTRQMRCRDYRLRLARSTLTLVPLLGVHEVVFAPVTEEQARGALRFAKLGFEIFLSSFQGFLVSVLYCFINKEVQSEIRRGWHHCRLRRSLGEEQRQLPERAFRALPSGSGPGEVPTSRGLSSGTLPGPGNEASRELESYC

Amino acid sequences for entries named in this document (tags omitted). A change or cut given only in a name is not applied to a line headed by its entry.
UniProt P43220: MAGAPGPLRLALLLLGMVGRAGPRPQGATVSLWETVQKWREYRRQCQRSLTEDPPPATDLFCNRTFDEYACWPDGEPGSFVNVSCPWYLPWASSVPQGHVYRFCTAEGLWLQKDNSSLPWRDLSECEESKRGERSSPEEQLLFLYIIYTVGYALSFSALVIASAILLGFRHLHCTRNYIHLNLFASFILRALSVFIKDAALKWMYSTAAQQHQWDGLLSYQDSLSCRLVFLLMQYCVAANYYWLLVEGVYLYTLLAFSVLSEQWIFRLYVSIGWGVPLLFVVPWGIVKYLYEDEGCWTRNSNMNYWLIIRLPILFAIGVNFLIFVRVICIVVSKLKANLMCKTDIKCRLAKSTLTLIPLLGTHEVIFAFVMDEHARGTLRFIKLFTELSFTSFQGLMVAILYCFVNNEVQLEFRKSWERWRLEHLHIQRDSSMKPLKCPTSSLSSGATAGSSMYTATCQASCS

T2: human GIPR (human, UniProt P48546 22-466)
T2 sequence (looked up): T1 sequence (P48546 22-466)


Columns and labels:
human GIPR [1] = target: T1, human GIPR; experiment: Agonist activity on human GIPR, CRE-luciferase reporter assay (increase in intracellular cAMP as indicator); type: cell-based; conditions: GLP1R EC50 / GIPR EC50
human GIPR [2] = target: T2, human GIPR; experiment: cell-based or functional assay
human GLP-1R = human GLP-1R (human, UniProt P43220 24-463); experiment: cell-based or functional assay

Molecule | Selectivity Ratio (B/A) (human GIPR [1]) | GIPR pEC50 (human GIPR [2]) | GLP1R EC50 nM (B) (human GLP-1R) [nM] | GLP1R pEC50 (human GLP-1R) | GIPR EC50 nM (A) (human GIPR [2]) [nM]
YAibEGTFTSDYSIAibLDKIAQ(Lys-(ethylene glycol)2-C20 diacid)AFVQWLIAGGPSSGAPPPS-NH2 [Compound 34] | 20 | – | – | – | –
YAEGTFISDYSIAMDKIHQQDFVNWLLAQK (D-Ala at 2; C-terminal -OH) [Compound No. 4] | – | 12.4 | – | – | –
YAEGTFISDYSIAMDKIHQQDFVNWLLAQKGKKNDWKHNIIQ (D-Ala at 2; Lys-(OEG-gGlu)2-Oda at 16; C-terminal -NH2) [Compound No. 13] | – | 10.6 | 513 | 6.29 | 0.024

Source: patent US20220016215A1, “GIP RECEPTOR AGONIST PEPTIDE COMPOUNDS AND USES THEREOF” (TAKEDA PHAARMACEUTICAL COMPANY LIMITED, priority 2018, published 2022)
